Assay results from PMC7203973 (ACS Omega, 2020).

Test: RBC partitioning
Format: in vitro ADME
Conditions: rat blood, 1000 nM, 0 min

Question: With CC(C)NC[C@H](O)COc1cccc2ccccc12 (racemic) [propanolol] as the molecule, how does the “blood-to-plasma ratio (KRBC/Plasma)” value read?
Answer: 1.07 ± 0.05
